Biological target: Epidermal growth factor receptor (Homo sapiens, UniProt P00533)

The chains behind the UniProt entries cited, without tags or fusion partners.
UniProt P00533, whole entry: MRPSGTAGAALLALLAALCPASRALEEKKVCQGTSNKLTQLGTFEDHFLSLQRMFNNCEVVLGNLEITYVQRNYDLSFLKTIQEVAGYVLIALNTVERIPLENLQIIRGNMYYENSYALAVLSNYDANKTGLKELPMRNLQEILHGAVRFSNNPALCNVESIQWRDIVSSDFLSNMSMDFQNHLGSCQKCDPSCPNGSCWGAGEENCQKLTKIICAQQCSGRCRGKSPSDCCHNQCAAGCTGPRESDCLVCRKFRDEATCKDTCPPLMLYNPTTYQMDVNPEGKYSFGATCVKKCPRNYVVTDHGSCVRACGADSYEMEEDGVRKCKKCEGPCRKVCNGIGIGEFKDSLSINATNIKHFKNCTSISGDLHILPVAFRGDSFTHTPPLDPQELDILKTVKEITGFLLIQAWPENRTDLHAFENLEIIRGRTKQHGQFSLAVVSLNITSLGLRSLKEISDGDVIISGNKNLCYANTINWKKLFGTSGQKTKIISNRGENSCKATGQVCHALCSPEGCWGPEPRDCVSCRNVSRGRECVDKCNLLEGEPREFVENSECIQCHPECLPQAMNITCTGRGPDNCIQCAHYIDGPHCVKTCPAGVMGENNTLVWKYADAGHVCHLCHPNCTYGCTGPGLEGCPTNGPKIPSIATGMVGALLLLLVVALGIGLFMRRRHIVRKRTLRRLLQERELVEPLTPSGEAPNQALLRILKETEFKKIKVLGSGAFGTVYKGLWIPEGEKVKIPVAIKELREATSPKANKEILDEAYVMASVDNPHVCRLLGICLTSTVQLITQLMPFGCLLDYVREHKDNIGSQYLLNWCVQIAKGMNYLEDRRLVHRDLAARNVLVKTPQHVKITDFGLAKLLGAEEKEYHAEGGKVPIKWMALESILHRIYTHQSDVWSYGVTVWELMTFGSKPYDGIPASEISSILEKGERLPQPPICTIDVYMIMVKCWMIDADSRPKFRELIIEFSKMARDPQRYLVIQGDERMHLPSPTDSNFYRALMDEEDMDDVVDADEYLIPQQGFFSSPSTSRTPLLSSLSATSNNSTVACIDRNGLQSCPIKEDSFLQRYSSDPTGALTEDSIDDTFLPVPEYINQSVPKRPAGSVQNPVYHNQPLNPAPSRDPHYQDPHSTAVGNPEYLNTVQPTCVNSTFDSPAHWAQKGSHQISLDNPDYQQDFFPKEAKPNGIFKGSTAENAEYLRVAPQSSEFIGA

## COc1cc2ncnc(Nc3cccc(Cl)c3)c2cc1OC [TYRPHOSTIN AG-1478]
  IC50: 0.316 nM

Reference: ChEMBL document CHEMBL1143196, “Discovery of kinase inhibitors by high-throughput docking and scoring based on a transferable linear interaction energy model” (J Med Chem, 2008)
